Test results taken from patent publication US20060074073A1, “Therapeutic combinations comprising poly (ADP-ribose) polymerases inhibitor” (AGOURON PHARMACEUTICALS, INC., priority 2004, published 2006).

Tested on: SW620 human colon carcinoma xenograft
Assay: In vivo antitumor efficacy with temozolomide, SW620 xenograft
Settings: 10 mg/kg compound alone QD×5

`CNCc1ccc(-c2[nH]c3cc(F)cc4c3c2CCNC4=O)cc1` [compound of formula 1, 8-fluoro-2-{4-[(methylamino)methyl]phenyl}-1,3,4,5-tetrahydro-6H-azepino[5,4,3-cd]indol-6-one] was tested, and the tumor growth delay was “no tumor growth delay”.
